# Ab-14 heavy chain CDR variants: yeast mating affinities

Target peptide (SARS-CoV-2 spike, HR2 region): PDVDLGDISGINAS

The variants keep the light chain, the linker and the frameworks of Ab-14 (scFv order VH, a 15-residue (Gly4Ser)3 linker, VL).
VH: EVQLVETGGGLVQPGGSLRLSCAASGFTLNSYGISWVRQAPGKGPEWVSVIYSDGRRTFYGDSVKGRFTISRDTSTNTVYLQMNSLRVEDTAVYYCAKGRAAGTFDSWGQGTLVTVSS
VL: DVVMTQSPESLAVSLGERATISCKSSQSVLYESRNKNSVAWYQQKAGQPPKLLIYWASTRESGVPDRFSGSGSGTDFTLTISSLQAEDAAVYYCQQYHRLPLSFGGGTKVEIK

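Phage display of a naive human antibody library on the peptide gave the parent. Designed CDR sequences, proposed from the first random library and measured here. Their group label is 14H_En_Gibbs (En: ensemble of fine-tuned language models; Gibbs: Gibbs sampling). In AlphaSeq, yeast of one mating type display the scFv and yeast of the other type display the target. The frequency of each diploid, read from paired DNA barcodes, reflects how well the two displayed proteins bind. Each replicate has its own calibration line, from reference interactions of the BCL2 family. Each pool was mated in six replicate cultures.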

Variants are written as CDR1, CDR2 and CDR3 of the heavy chain (limits as in the source). Parent: GFTLNSYGIS, VIYSDGRRTFYGDSVK, GRAAGTFDS. Values are log10 of the apparent Kd in nM; lower means stronger binding. Averages over replicates are reported, and they cover detected replicates only. Where no diploid with the target was found in that replicate, the entry reads "n.d.": below detection, most likely a poor binder, though not proof of it.

| CDR-H1 | CDR-H2 | CDR-H3 | log10 Kd, replicates | mean log10 Kd (nM) | control signals |
|---|---|---|---|---|---|
| GFGLNEYGIS | VIYADGVRTAYLQNVK | GIVSGFDQY | n.d. / n.d. / n.d. / n.d. / n.d. / n.d. | n.d. | 0/18 |
| GFDLNEYGIS | VIYADGSRVAYAQKVK | GKNDAISSV | n.d. / 2.90 / n.d. / n.d. / n.d. / n.d. | 2.90 | 1/18 (0.63) |
| GFDLGEYGIS | VIYADGTRTAYVTKVK | GHIAGMFFT | n.d. / n.d. / n.d. / n.d. / n.d. / n.d. | n.d. | 0/18 |
| GFDINEYGIS | VIYADGMRTGYQQQVK | GYHSGGLNQ | n.d. / n.d. / n.d. / n.d. / n.d. / n.d. | n.d. | 0/18 |
| GYDLQDYGIS | VIYADGRRTAFSHKVK | GQIAGTFNF | n.d. / n.d. / n.d. / n.d. / 1.68 / n.d. | 1.68 | 0/18 |
| GVNLDEYGIS | VIYADGVRQHYADSVK | GTHGDFGVV | n.d. / n.d. / n.d. / n.d. / n.d. / n.d. | n.d. | 0/18 |
| GFSLDEYGIS | VIYADGVRKSYMNSVK | GNIKGTLFA | n.d. / n.d. / n.d. / n.d. / n.d. / n.d. | n.d. | 0/18 |
| GFHLDEYGIS | VIYADGKRSVYTNDVK | GELQLGFVI | n.d. / n.d. / n.d. / n.d. / n.d. / n.d. | n.d. | 0/18 |
| GFNLDEYGIS | VIYADGRRMSYTDSVK | GGLGKYLTD | n.d. / n.d. / n.d. / n.d. / n.d. / n.d. | n.d. | 0/18 |
| GFDLNEYGIS | VIYADGMRSALINAVK | GTSSGTVIA | n.d. / n.d. / n.d. / n.d. / n.d. / n.d. | n.d. | 1/18 (1.13) |
| GFDIEEYGIS | VIYADGQRKSYINSFK | GQNNGIGMY | n.d. / n.d. / n.d. / n.d. / n.d. / n.d. | n.d. | 0/18 |
| GFDLEEYGIS | VIYADGMRTTAIDKVK | GIAGGLFLV | n.d. / n.d. / n.d. / n.d. / n.d. / n.d. | n.d. | 0/18 |
| GADIEEYGIS | VIYADGVRKSYVNSFK | GEVAGTFTN | n.d. / n.d. / n.d. / n.d. / n.d. / n.d. | n.d. | 0/18 |
| GFNLDEYGIS | VIYADGMRTAYGNNVK | GTVFGDYVS | n.d. / n.d. / n.d. / n.d. / n.d. / n.d. | n.d. | 0/18 |
| GFEIQEFGIS | VIYADGIRTNYSENVK | GTLAGTFTT | n.d. / n.d. / 2.05 / n.d. / n.d. / n.d. | 2.05 | 0/18 |
| GSDLNEYGIS | VIYADGKRSYYADAVK | GGYNIGMSV | n.d. / n.d. / n.d. / n.d. / n.d. / n.d. | n.d. | 0/18 |
| GESLNEYGIS | VIYADGVRSGYTNKVK | GQNTGAVSD | n.d. / n.d. / n.d. / n.d. / n.d. / n.d. | n.d. | 0/18 |
| GEDLDEYGIS | VIYADGRRQYYANNVK | GDINDVDDL | n.d. / n.d. / n.d. / n.d. / n.d. / n.d. | n.d. | 0/18 |
| GFDLEEYGIS | VIYADGYRTYAIDNVK | GEISGKGGT | n.d. / n.d. / n.d. / n.d. / n.d. / n.d. | n.d. | 0/18 |
| GNVLDEFGIS | VIYADGMRTAYAQDVK | GITGDNFMT | n.d. / n.d. / n.d. / n.d. / n.d. / n.d. | n.d. | 0/18 |
| GFDLDEQGIS | VIYADGRRVGYTDSVK | GTNGSDRTL | n.d. / n.d. / n.d. / n.d. / n.d. / n.d. | n.d. | 0/18 |
| GFNLDEYGIS | VIYADGTRRYYADNVK | GDYVYVNST | n.d. / n.d. / n.d. / n.d. / n.d. / n.d. | n.d. | 0/18 |
| GFDIDEFGIS | VIYADGKRTSYSDTVK | GQLGNAFDL | n.d. / n.d. / n.d. / n.d. / n.d. / n.d. | n.d. | 0/18 |
| GFNLDEYGVS | VIYADGQRTAYVQTVK | GKTVFVLFD | n.d. / n.d. / n.d. / n.d. / n.d. / n.d. | n.d. | 0/18 |
| GNNLDEYGIS | VIYADGQRTYYAQDVK | GKTGDNAFI | n.d. / n.d. / n.d. / n.d. / 2.61 / n.d. | 2.61 | 0/18 |
| GFKLDEYGIS | VIYADGHRVAYSQKVK | GDNVGAFFV | n.d. / n.d. / n.d. / n.d. / n.d. / n.d. | n.d. | 0/18 |
| GFNLDEEGIH | VIYADGKRTAYQGSVK | GQNVGNFNV | n.d. / n.d. / n.d. / n.d. / n.d. / n.d. | n.d. | 0/18 |
| GFALNEYGIS | VIYADGSRKAYINSVK | GVNNMDVNV | n.d. / n.d. / n.d. / n.d. / 1.49 / n.d. | 1.49 | 0/18 |
| GFSLDEYGIS | VIYADGTRTFYTDNVK | GLISMVCGL | n.d. / n.d. / n.d. / n.d. / n.d. / n.d. | n.d. | 0/18 |
| GFDIDEYGIS | VIYADGQRTAYKPTVK | GNNTGLVFI | n.d. / n.d. / 2.40 / n.d. / n.d. / n.d. | 2.40 | 0/18 |
| GFQIDEYGIS | VIYADGLRAAYSQDVK | GMDTGDFMD | n.d. / n.d. / n.d. / n.d. / n.d. / n.d. | n.d. | 0/18 |
| GFDLGEYGIS | VIYADGQRKSYADAVK | GQSSVYMTA | n.d. / n.d. / n.d. / n.d. / n.d. / n.d. | n.d. | 0/18 |
| GKDLQEYGVS | VIYADGMRQSYADSVK | GQHAGYLDK | n.d. / 3.15 / n.d. / n.d. / n.d. / n.d. | 3.15 | 2/18 (2.83) |
| GFDLGEYGIS | VIYADGRRKGYSDAVK | GINVIGKTV | n.d. / n.d. / n.d. / n.d. / n.d. / n.d. | n.d. | 0/18 |
| GFDLNEYGIS | VIYADGQRTYAANTVK | GGAVGGQLD | 1.54 / n.d. / n.d. / n.d. / n.d. / n.d. | 1.54 | 0/18 |
| GFDVDEYGIS | VIYADGSRVAILESVK | GKIAGTFFV | n.d. / n.d. / n.d. / n.d. / n.d. / n.d. | n.d. | 0/18 |
| GSKLDEYGIS | VIYADGKRSFYSNAVK | GGKAGGTTV | n.d. / n.d. / n.d. / n.d. / n.d. / n.d. | n.d. | 0/18 |
| SFNLEEYGIS | VIYADGKRSVYADSVK | GHISGWFAM | 0.30 / 0.58 / 0.19 / -0.26 / 0.92 / 0.03 | 0.29 | 0/18 |
| GGDIQEYGIS | VIYADGQRAQYADAVK | GTIGGIFSD | n.d. / n.d. / n.d. / n.d. / n.d. / n.d. | n.d. | 0/18 |
| EFDLQEYGIS | VIYADGKREAYKDNFK | GNGGGVFDA | n.d. / n.d. / n.d. / n.d. / n.d. / n.d. | n.d. | 0/18 |
| GFGLMDYGIS | VIYADGKRRSYANSVK | GAHAGTFDF | n.d. / n.d. / n.d. / n.d. / n.d. / n.d. | n.d. | 0/18 |
| GFNLGEYGIS | VIYADGVRTAYVDKVK | GFNQVDSLI | n.d. / n.d. / n.d. / n.d. / n.d. / n.d. | n.d. | 0/18 |

The authors' rule: three or more of the six replicates give a measured affinity, fewer mean a poor binder. Empty control strains, which show no peptide, gave a signal in 1% of pairings with all heavy chain designs; the median was 2.08 and 95% of these signals were weaker than 0.84. No background was subtracted. The control count says in how many pairings with the empty strains this scFv gave a signal, with their mean in brackets. The range of this assay differs from that of the first round, and the authors advise against merging the two.

From the AlphaSeq antibody data of Li et al. 2023 (doi:10.1038/s41467-023-39022-2), copy in the FLAb collection.